US20130102662A1, “USE OF INDUCIBLE NITRIC OXIDE SYNTHASE INHIBITORS AND NITRIC OXIDE […] INHIBIT POST-TRAUMATIC IMMUNODEPRESSION” (University of Pittsburgh - of the Commonwealth System of …, priority 2011, published 2013)
Entries after “also recorded” stand apart in the source; their conditions may differ.

System: splenocytes
Experiment: Splenocyte proliferation (tritiated thymidine uptake) 48 hours after pseudofracture trauma, mice given 1400 W
Format: in vivo
Conditions: C57BL/6 mice, 1400 W 5 mg/kg intraperitoneally, antiCD3e 1 μg/ml (FIG. 5)

## CC(=N)NCc1cccc(CN)c1 [1400 W, N-(3-(Aminomethyl)benzyl)acetamidine]
  Splenocyte proliferative responses to antiCD3e after trauma: restores the proliferation response; also recorded: restored
